Where two headings read alike, the source gives them in different places.
Experiments:
[1] = molecular target: T1, rFIXa (human) (Homo sapiens, UniProt P00740); conditions: 25% additive; fluorogenic MeSO2-D-CHA-Gly-Arg-AMC 0.51 mmol/l; 0.08 μmol/l rFIXa; pH 7.4
Description: The stimulation of human rFIXa by ethanol and ethylene glycol was examined using the peptide substrates MeSO2 -D-HHT-Gly-Arg-pNA (Pefachrom tPA, Pentapharm Ltd., Basel, Switzerland), MOC-D-Nle-Gly-Arg-pNA (Chromozym X, Boehringer Mannheim GmbH, Mannheim, Germany, Cat.No. 789763), MeSO2 -D-CHG-Gly-Arg-pNA (Pentapharm Ltd., Basel, Switzerland), MeSO2 -D-CHA-Gly-Arg-pNA (Pentapharm Ltd., Basel, Switzerland) and MeSO2 -D-CHA-Gly-Arg-AMC (Pentapharm Ltd., Basel, Switzerland).
Test Mixture Fluorogenic (Concentration in the Test)
0.51 mmol/l MeSO2 -D-CHA-Gly-Arg-AMC
0.08 μmol/l rFIXa (human)

Sequences of proteins named here, by UniProt entry; tags and fusion partners are left off. Residues count along the entry.
UniProt P00740, 131-226: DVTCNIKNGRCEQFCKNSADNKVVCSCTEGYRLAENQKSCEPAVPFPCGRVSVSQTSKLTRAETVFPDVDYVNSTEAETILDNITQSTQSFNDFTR
UniProt P00740, 227-461: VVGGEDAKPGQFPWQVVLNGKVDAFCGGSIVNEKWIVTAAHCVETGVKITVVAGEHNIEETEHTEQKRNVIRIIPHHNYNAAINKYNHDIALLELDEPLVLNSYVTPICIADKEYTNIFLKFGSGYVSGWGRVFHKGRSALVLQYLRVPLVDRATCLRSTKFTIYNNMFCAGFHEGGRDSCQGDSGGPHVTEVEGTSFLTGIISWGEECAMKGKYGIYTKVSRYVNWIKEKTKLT

[2] = molecular target: T1, rFIXa (human); test: Influence of alcohols and organic solvents on the activity of rFIXa, chromogenic peptide substrates; type: biochemical; parameters: coding for the FIX protease domain from amino acid position 181 to 415; Met (ATG start codon) (N); made in house; conditions: 50% additive; MOC-D-Nle-Gly-Arg-pNA 0.82 mmol/l; 0.48 μmol/l rFIXa; pH 7.4
Description: The reaction was started by adding FIXa.
MeSO2 -D-HHT-Gly-Arg-pNA→MeSO2 -D-HHT-Gly-Arg+pNA measurement signal: pNA
0.48 μmol/l rFIXa (human)
0-50% (alcohol or organic solvent)
The ratio V/V0 was calculated to illustrate the stimulation of the catalytic activity of rFIXa.
V0, reaction rate without additives
V, reaction rate in the presence of additives
Test Mixture Chromogenic (Concentration in the Test)

- V/V0 [1]: 1.37
- V/V0 [2]: 1.39
Structure (SMILES): CCO [Ethanol]

Source: patent US6087119A, “Method for determining the catalytic activity of factor IXa” (Roche Diagnostics GmbH, priority 1996, dated 2000)
